Values of other authors as cited in US6624141B1, “Protamine fragment compositions and methods of use” (The Regents of The University of Michigan, priority 1999, dated 2003).

Conditions: cited from earlier work

Substance: insulin
- pKa: about 4.5
